Results from patent US11021454B2, “Type of aryl benzofuran amidated derivative and medical use thereof” (CHINA PHARMACEUTICAL UNIVERSITY, priority 2016, dated 2021).

How the values were obtained:
[1] = tested on: LPS-stimulated macrophage RAW 264.7; assay: Scavenging of superoxide anion in LPS-stimulated macrophage RAW 264.7 (2-OH-E+ by LC-MS); assay type: cell-based; conditions: LPS-stimulated RAW 264.7
Protocol: The antioxidant activity (the ability to scavenge superoxide anion) of the synthesized benzofuran amidated derivative is evaluated by a cell model.
After phagocytosis of bacteria, senescent denatured cells, immune complexes or oxidized low-density lipoproteins, mammalian macrophages cells enter a functional activation state, with enhanced intracellular lysosomal function and increased ROS levels, and they secrete and synthesize inflammatory cytokines. Lipopolysaccharide (LPS) is the main component of the cell wall of Gram-negative bacteria and is the main material basis for its pathogenesis; it can stimulate the production of monocytes/macrophages and release a large amount of reactive oxygen species (mainly including O2^− and H2O2), inflammatory factors such as nitric oxide (NO), IL-1β and Tumor necrosis factor-α (TNF-α) that are involved in the acute phase response of the body, causing inflammatory damage to the body. The present invention utilizes the LPS-stimulated macrophage model to evaluate the antioxidant activity of benzofuran amidated derivatives to scavenge superoxide anion at the cellular level.
13.1 Preparation of Reagents and Standard Solutions
(2) LPS: accurately weigh the appropriate amount of LPS, and prepare a sample stock solution of 0.1 g/ml, with DMEM and store at −20° C. for later use.
(3) Probe Stabilizer DTPA: Weigh accurately the amount of DTPA, prepare a 20 mM sample stock solution with DMSO, dilute to 100 µM with PB, and store at 4° C. for use.
(4) HE: Prepare a 20 mmol/L stock solution by dissolving the probe with dimethyl sulfoxide under anaerobic and dark conditions, and store at −80° C. in the dark. Take it out before use, prepare a 10 μmol/L solution with DMEM, place it on ice and store it in the dark.
LPS stimulated macrophage RAW 264.7 modeling and administration:
(1) RAW 264.7 cells are cultured in Petri dishes (60 mm), 4 mL per dish, and incubated in a 5% CO2 incubator with saturated humidity at 37° C. The experiment is divided into blank group, model group and drug-administered group. The model group and the drug-administered group are respectively added with the modeling agent LPS (prepared with DMEM) and the optimal LPS concentration is 0.1 μg/mL, while the modeling time is 24 h; take vitamin E as a positive control.
(2) After 12 h of cell culture, the supernatant is discarded, and the test drug with a final concentration of 10 μM containing 0.1 μg/mL LPS medium is added, and two parallel holes are provided for each sample to be tested.
(3) Continue to culture in a cell culture incubator for 24 h, the supernatant is discarded, the cells are washed with PBS, and added to DMEM medium containing the probe HE (10 μM) and cultured in the dark for 30 min.
(4) The cells are then washed twice with ice-cold PBS/(100 μM) DTPA, then added 1 mL PBS/(100 μM) DTPA, before the cells are divided into two with a spatula (700 μL and 300 μL) and collected into EP tubes; then they are centrifuged at 13,000 rpm for 10 min at 4° C., the supernatant is removed, and the cell pellet are stored at −80° C. for future use. The first one contains 700 μL cell solution for the determination of LC-MS content of the test substance 2-OH-E^+, while the second one contains 300 μL cell solution for the determination of cell protein concentration.
13.3 LC-MS Analysis Conditions, Sample Pretreatment and Data Processing Methods
(1) LC-MS chromatographic conditions: instrument: Agilent 1100 series LC-QMS; column: Agilent Zorbax SB-Aq (4.6×50 mm, 1.8 μm); mobile phase: 0.1% formic acid-water (phase A); 0.1% formic acid-acetonitrile (B); gradient conditions: 0˜2 min, 5%˜30% B; 2˜5 min, 30% B; 5˜7 min, 30%˜100% B; 7˜10 min, 100% B; flow rate: 1 mL/min; MS condition: positive ion mode, SIM (SIM1: 1.2˜3 min [M+H]^+288 (galantamine); 3˜10 min [M]^+330 (2-OH-E^+)); cracking voltage: 120 V; nitrogen flow rate: 10.0 L/min; […]

[2] = tested on: Normal hepatocyte LO2; assay: Inhibition of uric acid production in xanthine-modelled hepatocyte cell model; assay type: cell-based; conditions: xanthine modeling
Protocol: The effect of benzofuran amidated derivatives on uric acid production is evaluated using a cell model.
(2) Experimental procedure: Normal hepatocyte LO2 are inoculated in a 6-well plate (plate density 1×10^6 cells/mL), and cell experiments are performed after 4 hours of plating. The experiment is divided into blank group, model group and drug-administered group; the model group and the drug-administered group are respectively added with the modeling agent xanthine (prepared with DMSO as a stock solution), while the blank group is added with the same volume of DMSO, and the Febuxostat is used as a positive control.
(3) Pre-treatment of mass spectrometry: take 100 μL of the medium collected, add MeOH 400 μL, CHCl3 100 μL and H2O 300 μL, perform vortex mixing, and centrifuging at 20000 g for 10 min, then take the upper layer for concentration and dry. Reconstitute H2O 100 μL, and add 10 μL of internal standard substance galantamine (1.25 μM) (final concentration 0.125 μM), centrifuge at 13,000 rpm for 10 min, and take the upper layer for LC-MS analysis.

Row | Compound | scavenging effect on superoxide anion compared to the model group [1] | inhibitory effect on the formation of uric acid in hepatocyte model [2]
1 | COC(=O)[C@H](Cc1ccc(O)c(O)c1)NC(=O)/C=C/c1ccc(O)c2oc(-c3ccc(O)c(O)c3)cc12 [Compound 5a, Methyl (S,E)-3-(3,4-dihydroxyphenyl)-2-(3-(2-(3,4-dihydroxyphenyl)-7-hydroxybenzofuran-4-yl)acrylamido)propanoate] | obvious scavenging effect | –
2 | COC(=O)[C@H](C)NC(=O)/C=C/c1ccc(O)c2oc(-c3ccc(O)c(O)c3)cc12 [Compound 5c, Methyl (E)-(3-(2-(3,4-dihydroxyphenyl)-7-hydroxybenzofuran-4-yl)acryloyl)-L-alaninate] | obvious scavenging effect | –
3 | COC(=O)[C@@H](Cc1ccc(O)c(O)c1)NC(=O)/C=C/c1ccc(O)c2oc(-c3ccc(O)c(O)c3)cc12 [Compound 5b] | obvious scavenging effect | significant inhibitory effect
4 | O=C(/C=C/c1ccc(O)c2oc(-c3ccc(O)c(O)c3)cc12)N[C@@H](Cc1ccccc1)C(=O)O [Compound 6d, (E)-(3-(2-(3,4-dihydroxyphenyl)-7-hydroxybenzofuran-4-yl)acryloyl)-L-phenylalanine] | obvious scavenging effect | –
5 | O=C(/C=C/c1ccc(O)c2oc(-c3ccc(O)c(O)c3)cc12)N[C@H](Cc1ccc(O)c(O)c1)C(=O)O [Compound 6b, (R,E)-3-(3,4-dihydroxyphenyl)-2-(3-(2-(3,4-dihydroxyphenyl)-7-hydroxybenzofuran-4-yl)acrylamido) propanoic Acid] | obvious scavenging effect | –
6 | O=C(/C=C/c1ccc(O)c2oc(-c3ccc(O)c(O)c3)cc12)N[C@@H](Cc1ccc(O)cc1)C(=O)O [Compound 6e, (E)-(3-(2-(3,4-dihydroxyphenyl)-7-hydroxybenzofuran-4-yl)acryloyl)-L-tyrosine] | obvious scavenging effect | significant inhibitory effect
